According to patent US20230181570A1, “Transdermal Formulation Containing Apomorphine” (MEDRX CO., LTD., priority 2020, published 2023):
Counter-ions that a name gives are not always drawn.

Assay: Study of the solubility of apomorphine hydrochloride in various solvents

Question: Which results are given for `CN1CCc2cccc3c2[C@H]1Cc1ccc(O)c(O)c1-3` [apomorphine hydrochloride]?
Answer: apomorphine hydrochloride solution able to be prepared (1,3-butanediol mixed with propylene carbonate at a weight ratio of 5:1): 10 % by weight; apomorphine hydrochloride solution able to be prepared (concentrated glycerin (99%) mixed with propylene carbonate at a weight ratio of 5:1): 10 % by weight
